Earlier results in paper PMC3367028.

The chains behind the UniProt entries cited, without tags or fusion partners. Residues count along the entry.
UniProt P04233, 73-296: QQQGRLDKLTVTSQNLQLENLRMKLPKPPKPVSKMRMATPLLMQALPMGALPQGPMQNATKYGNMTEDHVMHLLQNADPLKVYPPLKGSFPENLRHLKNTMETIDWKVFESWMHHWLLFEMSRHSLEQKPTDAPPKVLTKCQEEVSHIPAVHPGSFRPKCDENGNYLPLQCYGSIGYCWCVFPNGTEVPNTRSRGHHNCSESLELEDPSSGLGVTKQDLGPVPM
UniProt P14174, 2-115: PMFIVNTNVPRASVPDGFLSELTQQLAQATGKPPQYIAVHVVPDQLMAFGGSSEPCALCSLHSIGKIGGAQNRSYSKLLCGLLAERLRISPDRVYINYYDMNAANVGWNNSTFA

Target: CD74 (Homo sapiens) (UniProt P04233)
Test: SPR

Kd: 1.54 nM
Substance: MIF (from UniProt P14174)
